Assay: PK study in rats after single oral administration of Pogostemon cablin (PC) extract, plasma analysed by UPLC-MS/MS
Conditions: rat plasma
[1] = PC extract 4.0 g/kg single oral dose, n = 6

AUC (0-tn) [1]: 111.9 ± 37.7 ng·h/mL
Tmax [1]: 30 ± 18 min
shape of plasma concentration-time curve (PC extract oral, Figure 2): double-peak phenomenon
Substance: β-rhamnocitrin
